From ChEMBL document CHEMBL6103538, “Carbonic anhydrases: Moiety appended derivatives, medicinal and pharmacological implications” (Bioorg Med Chem, 2024)

What was measured:
Homo sapiens [1] = species: Homo sapiens; assay: Selectivity ratio of Ki for human CA2 to Ki for human CA12
Homo sapiens [2] = species: Homo sapiens; assay: Selectivity ratio of Ki for human CA2 to Ki for human CA9

`COc1cccc(NC(=O)Nc2ccc(S(N)(=O)=O)cc2)c1` was tested, and the Ratio IC50 (Homo sapiens [1]) was 0.83 and the Ratio IC50 (Homo sapiens [2]) was 1.84.
